# Values quoted from earlier work in PMC8675232, “Reduction in C-Peptide Levels and Influence on Pharmacokinetics and Pharmacodynamics of Insulin Preparations: How to Conduct a High-Quality Euglycemic Clamp Study” (Frontiers in Pharmacology, 2021).
# Experiments:
# [1] = in circulation; ref Hoekstra et al., 1982; Jones and Hattersley, 2013; cited from earlier work
# [2] = ref Yaribeygi et al., 2019; cited from earlier work
substance,measurement,setting,value
insulin,half-life,[1],3 to 5 min
same,part extracted by the liver before reaching the peripheral circulation,[2],approximately 50%
